Experimental data published in patent US7335484B2, “Retinoid metabolizing protein” (Queen's University at Kingston, priority 1996, dated 2008).

Test system: MCF10A and MCF7 cell lines
Experiment: RA metabolites in MCF7 and MCF10A cell lines exposed to RA

total aqueous soluble metabolites, exposed to RA vs control (MCF7 cells): much greater
lipid soluble metabolites, exposed to RA vs control (MCF10A cell line): little difference
total aqueous soluble metabolites, induced vs control (MCF10A cells): about the same
SMILES: CC1=C(/C=C/C(C)=C/C=C/C(C)=C/C(=O)O)C(C)(C)CCC1 [RA, all-trans retinoic acid]
